Data on three molecules can be found in US20110130386A1, “DNA-PK INHIBITORS” (priority 2008, published 2011).

Protein sequences, listed by entry. Tags and fused reporters are not part of them.
UniProt P78527, whole entry: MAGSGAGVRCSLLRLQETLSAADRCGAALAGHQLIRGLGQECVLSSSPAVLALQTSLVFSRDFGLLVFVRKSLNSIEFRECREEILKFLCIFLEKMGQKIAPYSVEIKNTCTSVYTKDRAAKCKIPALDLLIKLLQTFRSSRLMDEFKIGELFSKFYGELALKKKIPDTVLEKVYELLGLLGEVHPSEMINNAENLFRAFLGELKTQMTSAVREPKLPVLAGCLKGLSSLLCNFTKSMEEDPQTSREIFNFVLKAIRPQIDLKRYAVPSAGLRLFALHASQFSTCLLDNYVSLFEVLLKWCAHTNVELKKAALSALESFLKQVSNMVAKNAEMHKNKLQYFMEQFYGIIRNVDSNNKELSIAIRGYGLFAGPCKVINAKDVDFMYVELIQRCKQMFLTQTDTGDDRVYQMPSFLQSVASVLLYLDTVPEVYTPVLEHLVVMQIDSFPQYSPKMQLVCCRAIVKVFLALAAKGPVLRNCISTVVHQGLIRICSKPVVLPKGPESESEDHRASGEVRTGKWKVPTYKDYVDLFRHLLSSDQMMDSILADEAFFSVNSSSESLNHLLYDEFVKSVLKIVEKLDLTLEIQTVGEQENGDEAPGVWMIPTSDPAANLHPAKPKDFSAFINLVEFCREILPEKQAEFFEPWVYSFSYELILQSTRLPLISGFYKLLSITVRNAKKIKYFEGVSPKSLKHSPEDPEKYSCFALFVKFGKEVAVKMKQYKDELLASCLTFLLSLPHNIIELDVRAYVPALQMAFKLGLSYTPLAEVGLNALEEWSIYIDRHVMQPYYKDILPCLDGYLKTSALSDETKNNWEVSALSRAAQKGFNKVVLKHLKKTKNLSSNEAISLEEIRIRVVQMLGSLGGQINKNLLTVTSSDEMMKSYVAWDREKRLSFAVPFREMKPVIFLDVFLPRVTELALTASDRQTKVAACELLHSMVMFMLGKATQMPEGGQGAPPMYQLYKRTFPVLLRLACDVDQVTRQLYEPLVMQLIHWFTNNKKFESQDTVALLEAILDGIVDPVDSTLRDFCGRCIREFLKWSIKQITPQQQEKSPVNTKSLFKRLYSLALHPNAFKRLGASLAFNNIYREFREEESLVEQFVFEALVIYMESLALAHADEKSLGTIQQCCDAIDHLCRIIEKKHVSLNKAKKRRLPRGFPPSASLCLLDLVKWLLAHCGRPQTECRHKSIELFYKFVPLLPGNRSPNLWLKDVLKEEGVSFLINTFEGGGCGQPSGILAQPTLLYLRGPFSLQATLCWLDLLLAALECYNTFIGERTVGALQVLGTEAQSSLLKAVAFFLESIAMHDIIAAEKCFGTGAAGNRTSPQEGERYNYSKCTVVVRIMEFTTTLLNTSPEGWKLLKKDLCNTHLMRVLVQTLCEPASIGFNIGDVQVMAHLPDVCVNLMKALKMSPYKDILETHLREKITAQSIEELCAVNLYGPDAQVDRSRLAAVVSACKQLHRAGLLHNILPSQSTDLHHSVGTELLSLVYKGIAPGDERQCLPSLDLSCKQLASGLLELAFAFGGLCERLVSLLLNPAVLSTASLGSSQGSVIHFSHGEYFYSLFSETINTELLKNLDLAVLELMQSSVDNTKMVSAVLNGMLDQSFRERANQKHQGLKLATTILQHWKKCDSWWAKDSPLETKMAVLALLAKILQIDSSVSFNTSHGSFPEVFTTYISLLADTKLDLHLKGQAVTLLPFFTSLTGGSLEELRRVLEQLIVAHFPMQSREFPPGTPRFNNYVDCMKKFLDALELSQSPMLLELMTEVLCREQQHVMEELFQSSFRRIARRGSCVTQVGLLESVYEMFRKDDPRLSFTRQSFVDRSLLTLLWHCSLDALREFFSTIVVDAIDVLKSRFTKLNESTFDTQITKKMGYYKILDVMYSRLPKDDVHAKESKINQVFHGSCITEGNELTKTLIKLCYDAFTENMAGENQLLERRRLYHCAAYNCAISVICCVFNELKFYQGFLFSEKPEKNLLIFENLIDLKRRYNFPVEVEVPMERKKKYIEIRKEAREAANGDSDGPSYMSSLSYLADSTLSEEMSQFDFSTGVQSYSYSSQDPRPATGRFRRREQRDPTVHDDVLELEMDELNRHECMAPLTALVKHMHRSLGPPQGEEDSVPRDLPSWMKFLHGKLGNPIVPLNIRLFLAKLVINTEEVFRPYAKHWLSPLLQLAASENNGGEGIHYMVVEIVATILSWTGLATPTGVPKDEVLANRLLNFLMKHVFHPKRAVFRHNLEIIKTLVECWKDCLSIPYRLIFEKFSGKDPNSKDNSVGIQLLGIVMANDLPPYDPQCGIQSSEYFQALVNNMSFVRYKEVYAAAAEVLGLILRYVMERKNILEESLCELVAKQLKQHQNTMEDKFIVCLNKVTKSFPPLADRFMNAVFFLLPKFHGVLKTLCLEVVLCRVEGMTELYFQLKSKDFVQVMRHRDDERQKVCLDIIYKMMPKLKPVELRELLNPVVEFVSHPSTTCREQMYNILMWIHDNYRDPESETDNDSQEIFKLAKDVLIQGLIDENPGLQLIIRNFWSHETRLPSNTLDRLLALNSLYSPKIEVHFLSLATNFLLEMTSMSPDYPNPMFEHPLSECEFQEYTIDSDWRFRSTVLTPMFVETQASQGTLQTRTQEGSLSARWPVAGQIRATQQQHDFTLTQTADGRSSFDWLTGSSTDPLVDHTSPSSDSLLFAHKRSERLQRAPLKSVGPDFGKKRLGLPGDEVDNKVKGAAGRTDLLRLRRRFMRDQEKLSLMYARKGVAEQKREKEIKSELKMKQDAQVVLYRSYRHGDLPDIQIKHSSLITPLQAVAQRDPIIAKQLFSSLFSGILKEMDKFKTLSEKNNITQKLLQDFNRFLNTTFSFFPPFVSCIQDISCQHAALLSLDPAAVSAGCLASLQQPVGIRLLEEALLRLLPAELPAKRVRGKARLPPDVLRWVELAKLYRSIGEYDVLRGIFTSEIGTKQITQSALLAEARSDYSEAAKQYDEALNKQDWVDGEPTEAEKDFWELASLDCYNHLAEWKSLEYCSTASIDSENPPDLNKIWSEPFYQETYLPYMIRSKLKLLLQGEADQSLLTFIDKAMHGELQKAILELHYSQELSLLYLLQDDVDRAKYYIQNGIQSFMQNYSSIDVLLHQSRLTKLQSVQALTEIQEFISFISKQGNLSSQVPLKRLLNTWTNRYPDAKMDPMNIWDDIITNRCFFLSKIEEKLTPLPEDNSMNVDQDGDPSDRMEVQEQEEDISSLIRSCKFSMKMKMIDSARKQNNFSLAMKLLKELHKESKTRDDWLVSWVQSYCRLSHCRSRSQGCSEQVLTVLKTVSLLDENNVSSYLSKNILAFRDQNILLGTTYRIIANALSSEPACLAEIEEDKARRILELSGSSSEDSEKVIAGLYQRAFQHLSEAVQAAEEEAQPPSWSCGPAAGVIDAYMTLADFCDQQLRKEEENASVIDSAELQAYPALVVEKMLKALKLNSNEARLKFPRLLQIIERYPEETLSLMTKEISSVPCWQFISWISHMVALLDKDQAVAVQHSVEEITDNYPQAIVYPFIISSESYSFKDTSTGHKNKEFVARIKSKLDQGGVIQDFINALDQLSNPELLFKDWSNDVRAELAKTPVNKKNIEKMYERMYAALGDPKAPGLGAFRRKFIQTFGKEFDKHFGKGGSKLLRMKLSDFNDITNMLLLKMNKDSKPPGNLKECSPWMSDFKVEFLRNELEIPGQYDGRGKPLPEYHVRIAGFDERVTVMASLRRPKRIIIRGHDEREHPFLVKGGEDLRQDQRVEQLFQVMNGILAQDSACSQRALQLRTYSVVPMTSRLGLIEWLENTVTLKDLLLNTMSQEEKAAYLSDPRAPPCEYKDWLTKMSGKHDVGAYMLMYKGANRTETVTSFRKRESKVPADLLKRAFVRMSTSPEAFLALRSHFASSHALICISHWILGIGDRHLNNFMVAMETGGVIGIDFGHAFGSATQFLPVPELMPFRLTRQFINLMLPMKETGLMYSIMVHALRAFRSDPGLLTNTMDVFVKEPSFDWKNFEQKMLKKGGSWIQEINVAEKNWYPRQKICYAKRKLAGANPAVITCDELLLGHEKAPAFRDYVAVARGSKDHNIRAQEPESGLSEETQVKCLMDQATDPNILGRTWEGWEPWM
UniProt P12956, whole entry partner: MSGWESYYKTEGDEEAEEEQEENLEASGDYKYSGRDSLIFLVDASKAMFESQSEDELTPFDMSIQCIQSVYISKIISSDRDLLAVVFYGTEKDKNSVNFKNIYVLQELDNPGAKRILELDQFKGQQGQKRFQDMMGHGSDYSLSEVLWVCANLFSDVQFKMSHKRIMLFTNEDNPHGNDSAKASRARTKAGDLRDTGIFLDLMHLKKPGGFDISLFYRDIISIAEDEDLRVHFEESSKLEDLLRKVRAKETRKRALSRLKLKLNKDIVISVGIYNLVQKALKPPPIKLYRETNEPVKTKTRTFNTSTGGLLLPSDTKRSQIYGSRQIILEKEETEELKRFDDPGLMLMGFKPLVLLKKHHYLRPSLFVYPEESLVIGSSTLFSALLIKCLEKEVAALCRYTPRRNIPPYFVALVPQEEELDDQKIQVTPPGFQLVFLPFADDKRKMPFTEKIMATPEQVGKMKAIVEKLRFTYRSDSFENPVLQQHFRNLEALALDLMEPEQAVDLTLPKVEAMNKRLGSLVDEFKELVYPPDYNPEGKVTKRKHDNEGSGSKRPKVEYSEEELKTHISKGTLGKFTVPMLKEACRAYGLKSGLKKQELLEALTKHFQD
UniProt P13010, whole entry partner: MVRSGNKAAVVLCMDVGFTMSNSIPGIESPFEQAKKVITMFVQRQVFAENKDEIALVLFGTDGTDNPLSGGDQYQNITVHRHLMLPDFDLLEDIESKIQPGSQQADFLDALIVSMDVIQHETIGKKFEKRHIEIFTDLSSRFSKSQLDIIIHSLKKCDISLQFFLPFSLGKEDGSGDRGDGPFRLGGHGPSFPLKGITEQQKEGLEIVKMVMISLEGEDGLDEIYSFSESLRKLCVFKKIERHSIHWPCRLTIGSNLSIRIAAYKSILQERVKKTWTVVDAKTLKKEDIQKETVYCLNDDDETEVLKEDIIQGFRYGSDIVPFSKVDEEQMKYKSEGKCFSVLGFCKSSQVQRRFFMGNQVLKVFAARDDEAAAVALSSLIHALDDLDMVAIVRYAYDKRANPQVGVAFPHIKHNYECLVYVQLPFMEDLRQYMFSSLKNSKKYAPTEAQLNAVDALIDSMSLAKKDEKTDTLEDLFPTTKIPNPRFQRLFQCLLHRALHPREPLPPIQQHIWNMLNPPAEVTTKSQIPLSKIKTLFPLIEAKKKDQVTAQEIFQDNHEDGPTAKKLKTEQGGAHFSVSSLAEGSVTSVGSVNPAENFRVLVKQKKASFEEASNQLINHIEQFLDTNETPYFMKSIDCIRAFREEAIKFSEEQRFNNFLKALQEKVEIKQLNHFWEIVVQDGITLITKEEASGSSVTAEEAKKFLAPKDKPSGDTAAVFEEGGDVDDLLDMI

The target of the assay is Mammalian DNA-PK (Homo sapiens, UniProt P78527). The assay can be described thus: DNA-PK inhibition assay (ELISA of p53 Ser15 phosphorylation of GST-p53N66). The format is biochemical, Mammalian (isolated from HeLa cell nuclear extract). The conditions noted are these: read-out: mean IC50; DNA-PK from HeLa nuclear extract; mean value. (In general: An ELISA detects its analyte on a solid surface through an enzyme-linked reagent.)
On to `O=C1CNCCN1Cc1ccc(-c2cccc3c(=O)cc(N4CCOCC4)oc23)c2sc3ccccc3c12`, for which the IC50 is 48.5 nM.
On to `O=c1cc(N2CCOCC2)oc2c(-c3ccc(CN4CCCCC4O)c4c3sc3ccccc34)cccc12` (stereo not drawn), for which the IC50 was found to be 127 nM.
In the case of `O=c1cc(N2CCOCC2)oc2c(-c3ccc(CN4CCCCC4F)c4c3sc3ccccc34)cccc12` (stereo not drawn), the IC50 worked out at 307 nM.

The term IC50 denotes the concentration that gives 50% inhibition.
